Data on two substances can be found in patent US20240043392A1, “NOVEL BIPHENYL DERIVATIVE AND PREPARATION METHOD AND PHARMACEUTICAL USE THEREOF” (XI'AN XINTON PHARMACEUTCAL RESEARCH CO., LTD., priority 2021, published 2024).

This data set deals with C57BL/6 mice. Briefly: Acute toxicity test, intraperitoneal injection. The conditions noted are these: 250 mg/kg and 125 mg/kg.

For “(4-((3′-(3-(4-(((1-carboxy-2-hydroxyethyl)amino) methyl)-1H-1,2,3-triazole-1-)propane oxy)-2,2′-dimethyl-[1,1′-biphenyl]-3-)methoxy)-5-chloro-2-((5-cyanopyridin-3-)methoxy)ben zyl)serine”, the death of mice entry was “did not die”. For “(5-chloro-2-((5-cyanopyridin-3-)methoxy)-4-((3′-(3-(4-((((R)-1-ethoxy-3-hydroxy-1-oxo propan-2-)amino)methyl)-1H-1,2,3-triazol-1-)propoxy)-2,2′-dimethyl-[1,1′-biphenyl]-3-)meth oxy) benzyl)-D-serine ethyl ester” the value was “did not die”.
